Among the data in BindingDB's records for doi:10.1016/j.bmcl.2004.02.022 (Pfizer, 2004) are IC50 values, retold here.

In general, IC50 refers to the concentration that gives 50% inhibition. A high value points to a need for much substance.

This experiment is described as follows: Inhibition of CCL3 induced chemotaxis in human T lymphocytes.

On to `CC(C)(O)CCC(C[C@H](O)[C@H](Cc1cccc(F)c1)NC(=O)c1cnc2ccccc2n1)C(N)=O` (stereo partly drawn) [Quinoxaline-2-carboxylic acid [(1S,2S)-4-carbamoyl-1-(3-fluoro-benzyl)-2,7-dihydroxy-7-methyl-octyl]-amide], for which the midpoint of inhibition, the IC50, lay at 65 nM.
